Target: T1, CDK4 (Homo sapiens, UniProt P11802)
T1 construct: Dose- and Time-dependent Degradation of CDK6 and CDK4 in U251 Cells; endogenous in cells; host or cells: U-251 MG (U251) glioblastoma cells
Assay: Western blot of CDK4 degradation in U251 cells transfected with DNA-PROTACs
Type: cell-based
Experimental: U-251 MG Glioblastoma Cell Line was grown in Dulbecco's Modified Eagles Medium (DMEM) containing 10% heat inactivated fetal bovine serum (FBS), streptomycin (5 μg/mL) and 5 U/mL penicillin 95 U/mL). All cell lines were maintained, and cell culture experiments were carried out in humidified incubators at 37° C. and 5% CO2 supplementation.
One day prior to DNA-PROTACs transfection, cells were propagated into 6 cm cell culture dishes containing appropriate complete growth medium. Prior to transfection, complete medium was replaced with transfection medium (5% FBS, no Penstrep). DNA-PROTACs transfection was performed using lipofectamine 3000 reagent according to the protocols provided by the manufacture. All transfections were carried out in 6-cm dishes with 3 mL of media and concentrations of DNA-PROTACs were calculated according to this volume (3 mL). Briefly, for 50 nM concentration, 5 μL from a 30 µM DNA-PROTACs stock and 12 μL p3000 reagent was added to a tube containing 125 μL of OPTIM-MEM and 8 μL of Lipofectamine 3000 reagent was added to a separate tube containing 125 μL of OPTIM-MEM. Two tubes were incubated for 5 minutes at room temperature and DNA-PROTACs containing OPTI-MEM was then slowly added to the second tube with lipo3000. The solution in the tube was mixed well by pipetting up and down several times. After incubating for 15-20 minutes at room temperature, 250 μL of DNA-PROTACs-lipofectamine complex was added drop wise onto cells containing the transfection medium. Transfection medium was mixed well before transferring the plate into the incubator. After appropriate time, cells were either harvested or replaced with fresh medium and incubated for desired time point prior to harvesting. For proteasome inhibition assay, 5 μM of MG-132 was incubated with cells for 2 h prior to transfection of DNA-PROTACs. […]
Protein concentration in all the cell lysates were measured by BCA protein assay kit and equal amounts from each lysate were mixed with 4×loading dye and boiled for 5 minutes followed by 2 minutes centrifugation prior to loading into SDS-PAGE gel. […]

Protein sequences, listed by entry. Tags and fused reporters are not part of them. Lines headed by an entry give the natural chain unless they say otherwise; changes in a name come on top.
UniProt P11802: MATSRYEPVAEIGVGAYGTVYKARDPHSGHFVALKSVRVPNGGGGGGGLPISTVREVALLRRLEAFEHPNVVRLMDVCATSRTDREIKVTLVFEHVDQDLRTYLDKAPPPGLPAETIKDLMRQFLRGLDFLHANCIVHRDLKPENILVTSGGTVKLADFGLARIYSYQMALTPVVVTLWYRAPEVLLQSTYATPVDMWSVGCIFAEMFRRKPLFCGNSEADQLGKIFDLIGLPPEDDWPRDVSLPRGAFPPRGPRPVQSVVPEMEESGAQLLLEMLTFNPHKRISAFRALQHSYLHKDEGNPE

DNA-PROTAC-V02: DNA duplex of E3-i (pomalidomide) strand SEQ ID NO 3 and POI-i (palbociclib) strand SEQ ID NO 4 (chain 1 ACTCCATCTANTTCTACGCCA; chain 2 TGGCGTAGAANTAGATGGAGT; pomalidomide and palbociclib conjugated; modified_base 1 OTHER; Nucleotide with phosphorothioate linkage; modified_base 2 OTHER; modified_base 3 OTHER; misc_difference 11 E3 ligase attached to 3-Dimethoxytrityloxy-2-(3-(fluorenylmethoxycarbonylamino)propanamido)propyl-1-O-(2-cyanoethyl)-(N,N-diisopropyl)-phosphoramidite modified adenosine, cytidine, thymi; m)
time for which CDK4 degradation was sustained (50 nM, time course): up to 48 hours | treatment time after which CDK4 degradation commenced (50 nM, time course): 48 h | concentration at which reduction in CDK4 protein levels is initiated (dose series): 40 nM

Source: patent publication US20260216229A1, “PROGRAMMABLE DNA PROTEOLYSIS TARGET CHIMERAS AND METHODS OF THEIR USE” (ARIZONA BOARD OF REGENTS ON BEHALF OF ARIZONA STATE …, priority 2023, published 2026)
